Measurements: patent publication US20220218641A1 (Concert Pharmaceuticals, Inc., priority 2019, published 2022)

Type: in vivo, male Sprague Dawley rats
Conditions: separate experiment

Row | PK parameters, Compound 100 compared with Compound 103 | Compound
1 | similar | [2H][C@@](N)(CO)C(=O)O [Compound 100, (2R)-2-amino-2-deutero-3-hydroxy-propanoic acid]
2 | similar | [2H]C([2H])(O)[C@@]([2H])(N)C(=O)O [Compound 103, (2R)-2-amino-2,3,3-tri-deutero-3-hydroxy-propanoic acid]
